Sequences of proteins named here, by UniProt entry; tags and fusion partners are left off. A change or cut given only in a name is not applied to a line headed by its entry.
UniProt O00512: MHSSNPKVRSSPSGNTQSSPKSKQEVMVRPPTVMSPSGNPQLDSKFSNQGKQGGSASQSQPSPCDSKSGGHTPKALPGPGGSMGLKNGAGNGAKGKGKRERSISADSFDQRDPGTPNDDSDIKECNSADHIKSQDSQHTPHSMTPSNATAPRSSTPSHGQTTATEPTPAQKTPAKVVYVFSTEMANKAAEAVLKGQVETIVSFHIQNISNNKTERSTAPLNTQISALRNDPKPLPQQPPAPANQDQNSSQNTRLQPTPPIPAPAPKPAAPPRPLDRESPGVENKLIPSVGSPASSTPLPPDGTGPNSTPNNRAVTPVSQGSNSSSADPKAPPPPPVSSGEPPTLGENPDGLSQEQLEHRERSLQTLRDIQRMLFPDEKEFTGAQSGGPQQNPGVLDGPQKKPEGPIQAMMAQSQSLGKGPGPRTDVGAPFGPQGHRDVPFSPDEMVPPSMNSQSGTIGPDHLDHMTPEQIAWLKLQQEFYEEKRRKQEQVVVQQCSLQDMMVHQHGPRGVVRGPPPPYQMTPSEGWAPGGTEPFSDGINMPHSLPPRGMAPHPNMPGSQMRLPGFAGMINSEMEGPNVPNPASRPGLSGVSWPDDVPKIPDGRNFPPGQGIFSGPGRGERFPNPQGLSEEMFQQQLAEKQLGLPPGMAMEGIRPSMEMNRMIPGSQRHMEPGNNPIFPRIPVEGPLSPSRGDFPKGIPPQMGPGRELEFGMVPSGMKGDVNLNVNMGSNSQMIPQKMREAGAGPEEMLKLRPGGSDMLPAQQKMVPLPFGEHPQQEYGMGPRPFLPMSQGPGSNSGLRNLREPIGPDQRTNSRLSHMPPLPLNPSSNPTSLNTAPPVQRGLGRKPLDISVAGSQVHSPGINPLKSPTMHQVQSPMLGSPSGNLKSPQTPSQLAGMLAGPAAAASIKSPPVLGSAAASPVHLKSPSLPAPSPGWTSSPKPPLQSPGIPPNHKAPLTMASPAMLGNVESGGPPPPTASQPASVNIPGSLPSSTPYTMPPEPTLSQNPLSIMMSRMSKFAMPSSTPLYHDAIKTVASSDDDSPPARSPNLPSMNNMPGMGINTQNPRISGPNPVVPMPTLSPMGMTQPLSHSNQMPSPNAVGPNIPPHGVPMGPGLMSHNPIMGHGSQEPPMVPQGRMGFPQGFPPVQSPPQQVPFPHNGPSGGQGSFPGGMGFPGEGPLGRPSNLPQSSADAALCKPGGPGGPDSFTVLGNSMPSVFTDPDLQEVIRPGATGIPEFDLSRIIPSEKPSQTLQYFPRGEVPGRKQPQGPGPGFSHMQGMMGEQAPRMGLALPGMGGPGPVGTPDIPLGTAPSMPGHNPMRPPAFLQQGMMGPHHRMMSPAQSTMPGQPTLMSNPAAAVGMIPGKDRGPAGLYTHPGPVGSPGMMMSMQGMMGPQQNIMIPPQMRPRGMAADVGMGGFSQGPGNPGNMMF

In PMC2726290, “Decoding of Methylated Histone H3 Tail by the Pygo-BCL9 Wnt Signaling Complex” (Molecular Cell, 2008):

Experiments:
Assay type in all cases: binding
[1] = biological target: T1, PHD finger from hPygo1 (hPHD) (Homo sapiens, UniProt Q9Y3Y4); assay: ITC, histone tail peptides with free hPHD; conditions: 15-mer peptides, ITC at 25 °C, pH 8.0
T1 construct: hPygo1 PHD (amino acids 333–402); GST (N, cleaved yes); made in house; host or cells: E. coli BL21-CodonPlus(DE3)-RIL
T1 sequence (Q9Y3Y4 333-402): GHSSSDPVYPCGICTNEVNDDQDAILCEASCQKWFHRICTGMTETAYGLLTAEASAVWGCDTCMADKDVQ
Method: Free PHD fingers were purified similarly to the PHD-HD1 complexes, and purity was assessed by SDS-PAGE prior to use for ITC.
(§1) ITC was carried out using a VP-ITC Microcal calorimeter (Microcal, Northhampton, MA, USA). Peptides were lyophilized against freshly prepared 20mM ammonium bicarbonate solution and resuspended in the ITC dialysis buffer (25mM Tris pH 8.0, 100mM NaCl and 2mM β-mercaptoethanol). Experiments were performed at 25 °C. During titration, 4-12µl aliquots of 0.5-1.0mM peptide solution was injected into a solution of 50µM protein at time intervals of 5 min. ITC data were corrected for the heat of dilution and analyzed using Origin (version 5.0) provided by the manufacturer. […]

[2] = biological target: T2, hPHD-HD1 complex (hPygo1 PHD with hBCL9 HD1) (Homo sapiens, UniProt O00512+Q9Y3Y4); assay: ITC, histone tail peptides with human PHD-HD1 complex; conditions: ITC at 25 °C, pH 8.0
T2 construct: hPygo1 PHD (amino acids 333–402); GST (N, cleaved yes); made in house; host or cells: E. coli BL21-CodonPlus(DE3)-RIL
T2 sequence (Q9Y3Y4 333-402): T1 sequence (Q9Y3Y4 333-402)
T2 sequence (O00512 177-205 partner limits assumed): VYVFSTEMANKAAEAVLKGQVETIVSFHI
Method: as §1

[3] = biological target: T3, dPHD-HD1 complex (Drosophila Pygo PHD with Lgs HD1) (Drosophila melanogaster, UniProt Q961D9+Q9V9W8); assay: ITC, histone tail peptides with Drosophila PHD-HD1 complex; conditions: ITC at 25 °C, pH 8.0
T3 construct: Drosophila Pygo PHD (amino acids 747–808); GST (N, cleaved yes); made in house; host or cells: E. coli BL21-CodonPlus(DE3)-RIL
T3 sequence (Q9V9W8 747-808): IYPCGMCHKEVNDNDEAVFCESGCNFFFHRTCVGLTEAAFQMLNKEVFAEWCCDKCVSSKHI
T3 sequence (Q961D9 316-350 partner limits assumed): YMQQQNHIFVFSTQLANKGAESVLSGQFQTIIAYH
Method: as §1

For “15-mer H3K4me0: unmodified 15-mer histone H3 tail peptide”, the “binding (in words)” value [1] was “essentially undetectable”, the “binding (in words)” value [2] was “Neither complex showed detectable binding” and the “binding (in words)” value [3] was “Neither complex showed detectable binding”.
